Measurements reported in PubChem BioAssay AID720591 (Broad Institute, 2013).
Only a part is listed here, and it is no random draw. Measured potencies and affinities stand elsewhere. Activity calls are given as the source filed them.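 The calls were made as follows: active = Decreasing signal and fitted IC50 at most twice the top valid tested dose; inconclusive = Bad fit or a level curve showing 30 to 70% inhibition; inactive = the rest.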

Protein sequences, listed by entry. Tags and fused reporters are not part of them.
UniProt Q9NXA8, whole entry: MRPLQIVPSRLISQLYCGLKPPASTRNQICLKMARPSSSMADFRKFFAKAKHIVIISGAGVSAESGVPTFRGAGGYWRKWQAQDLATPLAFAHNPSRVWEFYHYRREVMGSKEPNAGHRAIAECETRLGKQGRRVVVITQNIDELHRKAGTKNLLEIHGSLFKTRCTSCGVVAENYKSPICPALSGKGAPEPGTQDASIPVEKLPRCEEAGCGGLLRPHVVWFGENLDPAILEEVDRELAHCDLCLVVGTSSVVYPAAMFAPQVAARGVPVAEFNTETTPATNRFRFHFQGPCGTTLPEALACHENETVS

Target: NAD-dependent protein deacylase sirtuin-5, mitochondrial (Homo sapiens) (UniProt Q9NXA8)
Assay: SIRT5 desuccinylase inhibitors, dose response, biochemical, fluorescence imaging, cherry-pick, set 5 (AID 720591);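 also: 0% = median of neutral control wells and -100% = median of positive control wells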
Conditions: Purified SirT5, succinyl-peptide AMC, trypsin-coupled fluorescence; at 15 µM (top of the series)

Row | Structure (SMILES) | activity change, negative = inhibition
1 | CCCOc1ccc(C(=O)NCC2(N(C)C)CCCCC2)cc1OC | inactive: -26.6%
